The data set is described as follows: Pharmacokinetics of tigecycline after single oral (gavage) and intravenous dose in 0.9% saline. The settings on record: Mean (n = 4).
[1] abbreviates: 15 mg/kg IV Gavage (so in the source).

On to Tigecycline, for which the AUC/Dose (15 mg/kg 0.9% saline, Gavage) was 10.9 and the AUC/Dose under setting [1] is 3653. Further, the Cmax/Dose is reported as 10.9 (15 mg/kg 0.9% saline, Gavage) and 3014 under setting [1].
